For this assay, the target named is Cannabinoid receptor 2 (Homo sapiens, UniProt P34972). As to the kind of experiment: Displacement of [3H]-CP55940 from recombinant human CB2 receptor expressed in Sf9 cell membranes co-expressing Galphai3beta1gamma2 measured after 90 mins by scintillation counting method.

By UniProt entry, the sequences of proteins in these tests, tags left out.
UniProt P34972, whole entry: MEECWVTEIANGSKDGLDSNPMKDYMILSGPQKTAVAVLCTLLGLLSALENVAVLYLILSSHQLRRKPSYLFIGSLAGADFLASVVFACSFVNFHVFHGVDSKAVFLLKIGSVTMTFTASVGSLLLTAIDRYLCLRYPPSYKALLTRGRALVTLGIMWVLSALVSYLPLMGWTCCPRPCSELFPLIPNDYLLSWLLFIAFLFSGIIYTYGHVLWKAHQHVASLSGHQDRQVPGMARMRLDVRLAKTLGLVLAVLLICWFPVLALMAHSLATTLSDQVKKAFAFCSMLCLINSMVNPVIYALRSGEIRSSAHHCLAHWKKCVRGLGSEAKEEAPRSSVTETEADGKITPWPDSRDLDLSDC

The results in this text go back to ChEMBL document CHEMBL4422692, “Plant-Based Modulators of Endocannabinoid Signaling” (J Nat Prod, 2019).

Consider `C=C(C)[C@@H]1CCC(C)=C[C@H]1c1c(O)cc(CCCCC)cc1O` [CANNABIDIOL], for which the inhibition constant Ki was found to be 372 nM.

The Ki is the equilibrium dissociation constant of an inhibitor or competing ligand from its target.
